From paper PMC9596378, “Discovery and molecular basis of subtype-selective cyclophilin inhibitors” (Nature Chemical Biology, 2022)
Like-named read-outs stand apart in the source and are kept apart here.

By UniProt entry, the sequences of proteins in these tests, tags left out. Residues count along the entry.
UniProt P30414, 7-179 limits assumed: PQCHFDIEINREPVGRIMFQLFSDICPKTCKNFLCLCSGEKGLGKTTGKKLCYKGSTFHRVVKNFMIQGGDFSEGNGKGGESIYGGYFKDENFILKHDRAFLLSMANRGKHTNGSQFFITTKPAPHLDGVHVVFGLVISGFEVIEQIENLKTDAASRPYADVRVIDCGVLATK
UniProt Q9Y3C6, whole entry: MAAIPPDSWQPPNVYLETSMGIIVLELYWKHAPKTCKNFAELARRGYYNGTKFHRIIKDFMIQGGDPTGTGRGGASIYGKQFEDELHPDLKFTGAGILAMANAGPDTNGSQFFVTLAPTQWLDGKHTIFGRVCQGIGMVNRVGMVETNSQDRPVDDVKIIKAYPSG
UniProt Q9UNP9, 131-301 limits assumed: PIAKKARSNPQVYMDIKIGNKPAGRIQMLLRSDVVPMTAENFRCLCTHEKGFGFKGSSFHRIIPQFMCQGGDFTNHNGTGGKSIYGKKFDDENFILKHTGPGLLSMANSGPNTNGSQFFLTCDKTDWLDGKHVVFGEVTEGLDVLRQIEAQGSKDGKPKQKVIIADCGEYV
UniProt P30405, 45-207 limits assumed: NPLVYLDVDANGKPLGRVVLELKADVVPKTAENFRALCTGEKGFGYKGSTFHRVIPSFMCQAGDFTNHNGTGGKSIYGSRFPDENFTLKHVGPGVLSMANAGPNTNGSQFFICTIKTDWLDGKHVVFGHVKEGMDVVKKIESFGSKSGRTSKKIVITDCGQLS
UniProt P62937, whole entry: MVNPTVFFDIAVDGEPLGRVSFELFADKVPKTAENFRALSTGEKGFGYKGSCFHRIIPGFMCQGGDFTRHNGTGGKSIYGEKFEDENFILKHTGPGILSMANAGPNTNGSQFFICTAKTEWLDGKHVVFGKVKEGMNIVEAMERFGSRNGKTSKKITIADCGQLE
UniProt P45877, 24-212 limits assumed: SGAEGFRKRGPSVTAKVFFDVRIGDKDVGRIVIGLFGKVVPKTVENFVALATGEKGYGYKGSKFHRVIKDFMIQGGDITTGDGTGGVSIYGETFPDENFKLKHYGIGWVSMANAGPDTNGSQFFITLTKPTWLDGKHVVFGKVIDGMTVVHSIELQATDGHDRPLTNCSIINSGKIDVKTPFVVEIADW
UniProt O43447, whole entry: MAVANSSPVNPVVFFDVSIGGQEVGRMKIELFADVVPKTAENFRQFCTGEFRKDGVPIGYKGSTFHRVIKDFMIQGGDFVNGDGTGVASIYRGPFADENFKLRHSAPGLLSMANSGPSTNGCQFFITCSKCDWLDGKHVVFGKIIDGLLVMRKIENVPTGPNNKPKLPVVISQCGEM
UniProt Q96BP3, 473-646 limits assumed: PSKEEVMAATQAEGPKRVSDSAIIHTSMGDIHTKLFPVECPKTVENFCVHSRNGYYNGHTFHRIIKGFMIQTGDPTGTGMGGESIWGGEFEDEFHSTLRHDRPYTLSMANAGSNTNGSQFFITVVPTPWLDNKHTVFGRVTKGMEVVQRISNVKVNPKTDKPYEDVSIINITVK
UniProt Q13427, 1-179 limits assumed: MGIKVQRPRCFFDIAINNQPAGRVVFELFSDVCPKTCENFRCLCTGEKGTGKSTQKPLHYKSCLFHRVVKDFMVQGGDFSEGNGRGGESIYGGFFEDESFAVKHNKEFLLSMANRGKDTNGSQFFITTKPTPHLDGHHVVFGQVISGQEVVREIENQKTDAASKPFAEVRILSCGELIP
UniProt Q08752, 1-183 limits assumed: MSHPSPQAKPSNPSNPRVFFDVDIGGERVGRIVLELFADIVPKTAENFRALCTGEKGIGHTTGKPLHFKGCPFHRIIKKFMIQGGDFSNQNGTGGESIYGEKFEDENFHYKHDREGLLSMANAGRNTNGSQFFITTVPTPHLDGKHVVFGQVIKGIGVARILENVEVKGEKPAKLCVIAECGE
UniProt P23284, 34-216 limits assumed: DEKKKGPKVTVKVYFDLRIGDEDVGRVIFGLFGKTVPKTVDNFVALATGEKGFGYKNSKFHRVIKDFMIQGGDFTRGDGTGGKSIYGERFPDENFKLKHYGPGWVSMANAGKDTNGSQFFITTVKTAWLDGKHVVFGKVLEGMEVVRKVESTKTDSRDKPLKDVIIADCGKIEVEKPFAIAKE

How the values were obtained:
[1] = target: NKTR (Homo sapiens, UniProt P30414); test: Chymotrypsin coupled prolyl-isomerase assay; format: biochemical
[2] = target: PPIL1 (Homo sapiens, UniProt Q9Y3C6); test: Chymotrypsin coupled prolyl-isomerase assay; format: biochemical
[3] = target: T1, CypE (Homo sapiens, UniProt Q9UNP9); test: Chymotrypsin coupled prolyl-isomerase assay; format: biochemical
[4] = target: CypD (Homo sapiens, UniProt P30405); test: Chymotrypsin coupled prolyl-isomerase assay; format: biochemical; settings: read-out: Wild-Type Cyclophilin Prolyl Isomerase Inhibition IC50 Values, CypD; wild-type CypD
[5] = target: CypA (Homo sapiens, UniProt P62937); test: Chymotrypsin coupled prolyl-isomerase assay; format: biochemical
[6] = target: CypC (Homo sapiens, UniProt P45877); test: Chymotrypsin coupled prolyl-isomerase assay; format: biochemical
[7] = target: CypH (Homo sapiens, UniProt O43447); test: Chymotrypsin coupled prolyl-isomerase assay; format: biochemical
[8] = target: PPWD1 (Homo sapiens, UniProt Q96BP3); test: Chymotrypsin coupled prolyl-isomerase assay; format: biochemical
[9] = target: CypG (Homo sapiens, UniProt Q13427); test: Chymotrypsin coupled prolyl-isomerase assay; format: biochemical
[10] = target: Cyp40 (Homo sapiens, UniProt Q08752); test: Chymotrypsin coupled prolyl-isomerase assay; format: biochemical
[11] = target: CypB (Homo sapiens, UniProt P23284); settings: read-out: Wild-Type Cyclophilin Prolyl Isomerase Inhibition IC50 Values, CypB; wild-type CypB
[12] = target: T1, CypE; test: Competition anisotropy binding assay with A26-Fl
[13] = read-out: Wild-Type Cyclophilin Prolyl Isomerase Inhibition IC50 Values, NKTR, wild-type NKTR
[14] = read-out: Wild-Type Cyclophilin Prolyl Isomerase Inhibition IC50 Values, PPIL1, wild-type PPIL1
[15] = read-out: Wild-Type Cyclophilin Prolyl Isomerase Inhibition IC50 Values, CypE, wild-type CypE
[16] = read-out: Wild-Type Cyclophilin Prolyl Isomerase Inhibition IC50 Values, CypA, wild-type CypA
[17] = read-out: Wild-Type Cyclophilin Prolyl Isomerase Inhibition IC50 Values, CypC, wild-type CypC
[18] = read-out: Wild-Type Cyclophilin Prolyl Isomerase Inhibition IC50 Values, CypH, wild-type CypH
[19] = read-out: Wild-Type Cyclophilin Prolyl Isomerase Inhibition IC50 Values, PPWD1, wild-type PPWD1
[20] = read-out: IC50 CypG, prolyl-isomerase inhibition, 5 nM cyclophilin
[21] = read-out: Wild-Type Cyclophilin Prolyl Isomerase Inhibition IC50 Values, CypG, wild-type CypG
[22] = read-out: IC50 NKTR, prolyl-isomerase inhibition, 5 nM cyclophilin
[23] = read-out: Wild-Type Cyclophilin Prolyl Isomerase Inhibition IC50 Values, Cyp40, wild-type Cyp40
[24] = read-out: IC50 CypH, prolyl-isomerase inhibition, 5 nM cyclophilin
[25] = read-out: IC50 CypC, prolyl-isomerase inhibition, 5 nM cyclophilin
[26] = read-out: IC50 PPWD1, prolyl-isomerase inhibition, 5 nM cyclophilin
[27] = read-out: IC50 PPIL1, prolyl-isomerase inhibition, 5 nM cyclophilin

Compound | IC50 [1, 13] | IC50 [2, 14] | IC50 [3, 15] | IC50 [4] | IC50 [5, 16] | IC50 [6, 17] | IC50 [7, 18] | IC50 [8, 19] | IC50 [9, 21] | IC50 [10] | IC50 [11] | further results
CC(C)(C)c1ccc(C[C@@H]2NC(=O)[C@]3(Cc4ccccc4)CCCN(C3)C(=O)/C=C/C(=O)NCC[C@@H](C(=O)NCCOCCN)NC(=O)Cc3ccccc3CNC2=O)cc1 | > 100000 nM | 1300 nM | 510 nM | 64 nM | 300 nM | 136 nM | > 100000 nM | 1600 nM | 36000 nM | 200 nM | 90 nM | IC50 [9, 20]: 40000 nM
NCCOCCNC(=O)[C@@H]1CCNC(=O)/C=C/C(=O)N2CCC[C@](Cc3ccccc3)(C2)C(=O)N[C@@H](Cc2ccc(-c3ccc4[nH]c(C(=O)O)cc4c3)cc2)C(=O)NCc2ccccc2CC(=O)N1 | > 25000 nM | 300 nM | 100 nM | 30 nM | 700 nM | 4000 nM | > 25000 nM | > 25000 nM | > 25000 nM | 3000 nM | 34 nM | 
NCCOCCNC(=O)[C@@H]1CCNC(=O)/C=C/C(=O)N2CCC[C@](Cc3ccccc3)(C2)C(=O)N[C@@H](Cc2ccc(-c3ccc4occc4c3)cc2)C(=O)NCc2ccccc2CC(=O)N1 | 50000 nM | 600 nM | 900 nM | 220 nM | 700 nM | 2300 nM | > 100000 nM | 3200 nM | 30000 nM | 900 nM | 200 nM | IC50 [1, 22]: 50000 nM; IC50 [9, 20]: 30000 nM
Cc1ccccc1-c1ccc(C[C@@H]2NC(=O)[C@]3(Cc4ccccc4)CCCN(C3)C(=O)/C=C/C(=O)NCC[C@@H](C(=O)NCCOCCN)NC(=O)Cc3ccccc3CNC2=O)cc1 | > 50000 nM | 2400 nM | 3000 nM | 380 nM | 1200 nM | 460 nM | > 100000 nM | > 50000 nM | > 50000 nM |  | 300 nM | IC50 [10, 23]: 400 nM
NCCOCCNC(=O)[C@@H]1CCNC(=O)/C=C/C(=O)N2CCC[C@](Cc3ccccc3)(C2)C(=O)N[C@@H](Cc2ccc(-c3ccc4cc(C(=O)O)oc4c3)cc2)C(=O)NCc2ccccc2CC(=O)N1 | > 10000 nM | 100 nM | 230 nM | 80 nM | 800 nM | 11000 nM | 10000 nM | > 10000 nM | 5000 nM | 5000 nM | 190 nM | IC50 [7, 24]: 10000 nM
Cc1cccc(-c2ccc(C[C@@H]3NC(=O)[C@]4(Cc5ccccc5)CCCN(C4)C(=O)/C=C/C(=O)NCC[C@@H](C(=O)NCCOCCN)NC(=O)Cc4ccccc4CNC3=O)cc2)c1 | > 50000 nM | 3000 nM | 1000 nM | 390 nM | 1200 nM | 500 nM | > 100000 nM | 12000 nM | > 50000 nM |  | 170 nM | IC50 [10, 23]: 600 nM
N#CCc1ccc(-c2ccc(C[C@@H]3NC(=O)[C@]4(Cc5ccccc5)CCCN(C4)C(=O)/C=C/C(=O)NCC[C@@H](C(=O)NCCOCCN)NC(=O)Cc4ccccc4CNC3=O)cc2)cc1C(=O)O | > 25000 nM | 3000 nM | 220 nM | 80 nM | 410 nM | 13000 nM | > 25000 nM | 10000 nM | > 25000 nM |  | 110 nM | IC50 [6, 25]: 13000 nM; IC50 [8, 26]: 10000 nM; IC50 [10, 23]: 10000 nM
N#CCc1ccc(-c2ccc(C[C@@H]3NC(=O)[C@]4(Cc5ccccc5)CCCN(C4)C(=O)/C=C/C(=O)NCC[C@@H](C(=O)NCCOCCN)NC(=O)Cc4ccccc4CNC3=O)cc2)cc1 | 17000 nM | 15 nM | 14 nM | 10 nM | 50 nM | 60 nM | 30000 nM | 150 nM | 4000 nM |  | 18 nM | IC50 [2, 27]: 20 nM; IC50 ([10]; read-out: IC50 Cyp40, prolyl-isomerase inhibition, 5 nM cyclophilin): 31 nM; IC50 [10, 23]: 30 nM
NCCOCCNC(=O)[C@@H]1CCNC(=O)/C=C/C(=O)N2CCC[C@](Cc3ccccc3)(C2)C(=O)N[C@@H](Cc2ccc(-c3ccc4c(CC(=O)O)coc4c3)cc2)C(=O)NCc2ccccc2CC(=O)N1 | > 10000 nM | 600 nM | 190 nM | 90 nM | 1900 nM | 15000 nM | > 10000 nM | > 10000 nM | > 10000 nM | 4000 nM | 400 nM | IC50 [2, 27]: 600 nM; IC50 [6, 25]: 15000 nM
NC(=O)[C@@H]1CCNC(=O)/C=C/C(=O)N2CCC[C@](Cc3ccccc3)(C2)C(=O)N[C@@H](Cc2ccc(-c3ccc(C=O)cc3)cc2)C(=O)NCc2ccccc2CC(=O)N1 | 2000 nM | > 10000 nM |  | 180 nM | 5000 nM | 3000 nM | > 10000 nM | 5000 nM | 7000 nM | 500 nM | 2000 nM | reduced potency relative to C3A ([12]; FP competition with A26-Fl, CypE): 16 fold; Ki ([12]; read-out: Ki CypE, FP competition with 0.5 nM A26-Fl, 24 h): 1200 nM; IC50 [1, 22]: > 10000 nM; IC50 [2, 27]: 2000 nM; IC50 ([3]; read-out: IC50 CypE, prolyl-isomerase inhibition, 5 nM cyclophilin): 1000 nM; IC50 ([5]; read-out: IC50 CypA, prolyl-isomerase inhibition, 5 nM cyclophilin): 5000 nM; IC50 [6, 25]: 3000 nM; IC50 [8, 26]: 5000 nM; IC50 [9, 20]: 7000 nM
NCCOCCNC(=O)[C@@H]1CCNC(=O)/C=C/C(=O)N2CCC[C@](Cc3ccccc3)(C2)C(=O)N[C@@H](Cc2ccc(-c3cccc(CCC(=O)O)c3)cc2)C(=O)NCc2ccccc2CC(=O)N1 | > 100000 nM | 1100 nM | 500 nM | 100 nM | 500 nM | 6000 nM | > 100000 nM | > 100000 nM | 13000 nM | 3000 nM | 300 nM | 
NCCOCCNC(=O)[C@@H]1CCNC(=O)/C=C/C(=O)N2CCC[C@](Cc3ccccc3)(C2)C(=O)N[C@@H](Cc2ccc(-c3ccc4c(c3)OCC4CC(=O)O)cc2)C(=O)NCc2ccccc2CC(=O)N1 (single isomer, unassigned) [B37] | 50000 nM | 160 nM | 9.7 nM | 8 nM | 72 nM | 7000 nM | 10000 nM | 19000 nM | 40000 nM | 4000 nM | 20 nM | IC50 [1, 22]: > 50000 nM; IC50 [7, 24]: 10000 nM
NCCOCCNC(=O)[C@@H]1CCNC(=O)/C=C/C(=O)N2CCC[C@](Cc3ccccc3)(C2)C(=O)N[C@@H](Cc2ccc(-c3ccc(/C=C/CC(=O)O)cc3)cc2)C(=O)NCc2ccccc2CC(=O)N1 | > 10000 nM | 400 nM | 140 nM | 60 nM | 800 nM | 15000 nM | > 25000 nM | > 10000 nM | 10000 nM | 1600 nM | 200 nM | IC50 [6, 25]: 15000 nM; IC50 [9, 20]: 10000 nM
NCCOCCNC(=O)[C@@H]1CCNC(=O)/C=C/C(=O)N2CCC[C@](Cc3ccccc3)(C2)C(=O)N[C@@H](Cc2ccc(-c3ccc([C@H]4C[C@@H]4C(=O)O)cc3)cc2)C(=O)NCc2ccccc2CC(=O)N1 | > 25000 nM | 50 nM | 170 nM | 130 nM | 1400 nM | 3000 nM | 12000 nM | 3000 nM | 14000 nM | 7000 nM | 300 nM | IC50 [7, 24]: 12000 nM; IC50 [8, 26]: 3000 nM
